This data set concerns Homo sapiens. The data set can be described thus: Oral bioavailability in human assessed as acyclovir level. The data set is classed as ADME, organism-based. The settings on record: in vivo.

Molecules are shown by their SMILES.

Regarding `CC(C)[C@H](N)C(=O)OCCOCn1cnc2c(=O)[nH]c(N)nc21.Cl` [VALACYCLOVIR HYDROCHLORIDE], the F was 54%.

Source of the values: ChEMBL document CHEMBL3526020, “Significance of peptide transporter 1 in the intestinal permeability of valacyclovir in wild-type and PepT1 knockout mice” (Drug Metab Dispos, 2013).
